Reference: BindingDB's records for PubMed 7908055 (Case Western Reserve University, 1994)

Chains of the proteins cited; added tags and fusions are not shown.
UniProt P14842, whole entry: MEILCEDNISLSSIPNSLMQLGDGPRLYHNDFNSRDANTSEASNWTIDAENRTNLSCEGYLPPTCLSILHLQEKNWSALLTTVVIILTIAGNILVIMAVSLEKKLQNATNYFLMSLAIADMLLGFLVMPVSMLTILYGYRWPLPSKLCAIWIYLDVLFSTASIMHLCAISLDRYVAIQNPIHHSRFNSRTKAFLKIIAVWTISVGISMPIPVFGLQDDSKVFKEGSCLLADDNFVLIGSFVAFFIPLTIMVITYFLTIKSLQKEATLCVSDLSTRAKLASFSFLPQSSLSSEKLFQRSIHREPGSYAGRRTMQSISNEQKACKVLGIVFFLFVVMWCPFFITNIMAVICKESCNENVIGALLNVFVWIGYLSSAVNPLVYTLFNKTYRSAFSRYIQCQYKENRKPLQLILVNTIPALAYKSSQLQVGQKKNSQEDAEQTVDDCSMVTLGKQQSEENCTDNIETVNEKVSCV

Experiments:
[1] = molecular target: 5-hydroxytryptamine receptor 2A (Rattus norvegicus, UniProt P14842)
[2] = molecular target: T1, 5-hydroxytryptamine receptor 2C (Rattus norvegicus, UniProt P08909)
T1 sequence (P08909 whole entry): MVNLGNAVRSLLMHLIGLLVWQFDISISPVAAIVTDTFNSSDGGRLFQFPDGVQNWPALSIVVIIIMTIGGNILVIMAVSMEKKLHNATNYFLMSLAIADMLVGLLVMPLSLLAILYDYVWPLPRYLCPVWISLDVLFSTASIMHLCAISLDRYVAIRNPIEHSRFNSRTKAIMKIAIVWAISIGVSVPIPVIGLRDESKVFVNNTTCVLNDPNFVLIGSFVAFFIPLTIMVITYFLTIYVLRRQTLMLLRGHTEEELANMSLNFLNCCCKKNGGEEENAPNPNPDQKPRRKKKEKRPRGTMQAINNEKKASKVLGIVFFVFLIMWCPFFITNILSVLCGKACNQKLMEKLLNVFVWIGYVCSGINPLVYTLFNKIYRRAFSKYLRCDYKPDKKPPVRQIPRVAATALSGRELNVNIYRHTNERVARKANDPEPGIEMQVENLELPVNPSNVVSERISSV

O=C(CCCN1CCC2(CC1)C(=O)NCN2c1ccccc1)c1ccc(F)cc1 [8-[4-(4-fluorophenyl)-4-oxidanylidene-butyl]-1-phenyl-1,3,8-triazaspiro[4.5]decan-4-one]
pKi [1]: 9.48 | pKi [2]: 6.01

pKi: −log10 of the molar value.
